Data reported in patent US12544366B2, “Combination of endocannabinoid and mTOR inhibitors in the treatment of neuroendocrine neoplasms” (HADASIT MEDICAL RESEARCH SERVICES AND DEVELOPMENT LTD., priority 2022, dated 2026).

Tested on: lung NCI-H727 tumor xenograft
Experiment: Subcutaneous NEN xenograft tumor model

## CO[C@H]1C[C@@H]2CC[C@@H](C)[C@@](O)(O2)C(=O)C(=O)N2CCCC[C@H]2C(=O)O[C@H]([C@H](C)C[C@@H]2CC[C@@H](OCCO)[C@H](OC)C2)CC(=O)[C@H](C)/C=C(\C)[C@@H](O)[C@@H](OC)C(=O)[C@H](C)C[C@H](C)/C=C/C=C/C=C/1C [Everolimus, everolimus]
2nd week, days 6-10, compared to control PBS
  tumor biomass at the beginning of the treatment: reduced tumor biomass
4th week, days 20-23
  tumor biomass at later stage (resistance analysis): constant increase in tumor biomass in similar levels to the control PBS
